Sequences of proteins named here, by UniProt entry; tags and fusion partners are left off. A change or cut given only in a name is not applied to a line headed by its entry.
UniProt P54750: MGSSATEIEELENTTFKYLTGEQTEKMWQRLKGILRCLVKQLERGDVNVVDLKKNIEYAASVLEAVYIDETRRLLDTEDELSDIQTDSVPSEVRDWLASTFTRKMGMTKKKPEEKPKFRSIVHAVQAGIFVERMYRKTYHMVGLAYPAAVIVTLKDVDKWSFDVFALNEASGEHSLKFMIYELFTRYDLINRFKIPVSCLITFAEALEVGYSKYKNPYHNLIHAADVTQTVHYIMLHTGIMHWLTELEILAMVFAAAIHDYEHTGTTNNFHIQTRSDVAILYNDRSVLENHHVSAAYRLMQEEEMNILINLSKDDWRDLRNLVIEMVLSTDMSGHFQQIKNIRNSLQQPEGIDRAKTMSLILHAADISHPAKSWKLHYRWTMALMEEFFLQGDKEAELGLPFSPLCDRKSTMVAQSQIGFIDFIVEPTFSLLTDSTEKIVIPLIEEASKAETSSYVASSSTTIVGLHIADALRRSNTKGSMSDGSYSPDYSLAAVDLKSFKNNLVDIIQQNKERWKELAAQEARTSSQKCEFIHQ
UniProt Q13946: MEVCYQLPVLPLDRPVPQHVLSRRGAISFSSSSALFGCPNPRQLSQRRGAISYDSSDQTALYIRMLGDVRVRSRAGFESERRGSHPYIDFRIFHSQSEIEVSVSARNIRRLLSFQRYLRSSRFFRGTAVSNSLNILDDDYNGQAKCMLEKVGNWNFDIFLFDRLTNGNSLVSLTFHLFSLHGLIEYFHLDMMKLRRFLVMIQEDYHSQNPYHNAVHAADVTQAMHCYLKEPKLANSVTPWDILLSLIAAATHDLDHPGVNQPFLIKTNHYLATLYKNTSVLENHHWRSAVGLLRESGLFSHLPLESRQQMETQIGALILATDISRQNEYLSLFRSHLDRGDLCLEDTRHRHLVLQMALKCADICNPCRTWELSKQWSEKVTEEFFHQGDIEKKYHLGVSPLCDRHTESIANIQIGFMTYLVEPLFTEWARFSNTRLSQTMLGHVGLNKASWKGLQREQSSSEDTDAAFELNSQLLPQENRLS
UniProt O76083: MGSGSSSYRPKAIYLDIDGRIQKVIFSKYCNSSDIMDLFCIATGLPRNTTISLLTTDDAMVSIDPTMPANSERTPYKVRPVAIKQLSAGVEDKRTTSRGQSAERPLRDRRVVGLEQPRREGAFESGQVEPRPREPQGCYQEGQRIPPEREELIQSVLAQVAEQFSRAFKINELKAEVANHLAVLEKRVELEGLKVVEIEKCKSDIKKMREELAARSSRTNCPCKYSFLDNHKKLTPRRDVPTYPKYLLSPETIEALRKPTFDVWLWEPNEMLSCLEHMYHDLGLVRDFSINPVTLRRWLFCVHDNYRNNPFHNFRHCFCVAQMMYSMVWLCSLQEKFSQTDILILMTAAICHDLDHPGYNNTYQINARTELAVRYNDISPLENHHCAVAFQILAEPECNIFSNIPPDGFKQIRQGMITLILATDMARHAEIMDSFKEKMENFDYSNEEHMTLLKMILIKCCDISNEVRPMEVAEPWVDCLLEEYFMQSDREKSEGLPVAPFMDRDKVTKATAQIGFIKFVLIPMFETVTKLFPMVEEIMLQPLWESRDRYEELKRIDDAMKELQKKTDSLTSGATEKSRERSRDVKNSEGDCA
UniProt Q07343: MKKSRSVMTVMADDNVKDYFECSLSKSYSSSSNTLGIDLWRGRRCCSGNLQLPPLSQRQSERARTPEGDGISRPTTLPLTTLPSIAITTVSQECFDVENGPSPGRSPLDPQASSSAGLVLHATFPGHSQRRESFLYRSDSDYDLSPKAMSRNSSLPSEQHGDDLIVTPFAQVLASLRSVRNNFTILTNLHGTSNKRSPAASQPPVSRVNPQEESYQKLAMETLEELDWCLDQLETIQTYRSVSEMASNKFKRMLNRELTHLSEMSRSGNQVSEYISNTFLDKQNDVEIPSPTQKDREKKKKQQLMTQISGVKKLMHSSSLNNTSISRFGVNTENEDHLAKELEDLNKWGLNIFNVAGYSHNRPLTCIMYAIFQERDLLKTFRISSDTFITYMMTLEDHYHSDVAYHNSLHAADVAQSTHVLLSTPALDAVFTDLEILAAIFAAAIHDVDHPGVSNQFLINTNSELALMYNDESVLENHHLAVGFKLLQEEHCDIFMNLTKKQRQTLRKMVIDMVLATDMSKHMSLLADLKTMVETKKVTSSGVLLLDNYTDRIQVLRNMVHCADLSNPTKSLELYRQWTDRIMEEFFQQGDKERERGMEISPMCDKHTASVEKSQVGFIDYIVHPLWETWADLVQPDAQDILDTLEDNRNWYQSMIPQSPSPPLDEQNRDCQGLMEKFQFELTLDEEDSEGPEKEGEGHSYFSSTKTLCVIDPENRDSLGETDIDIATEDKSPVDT
UniProt O00408, whole entry: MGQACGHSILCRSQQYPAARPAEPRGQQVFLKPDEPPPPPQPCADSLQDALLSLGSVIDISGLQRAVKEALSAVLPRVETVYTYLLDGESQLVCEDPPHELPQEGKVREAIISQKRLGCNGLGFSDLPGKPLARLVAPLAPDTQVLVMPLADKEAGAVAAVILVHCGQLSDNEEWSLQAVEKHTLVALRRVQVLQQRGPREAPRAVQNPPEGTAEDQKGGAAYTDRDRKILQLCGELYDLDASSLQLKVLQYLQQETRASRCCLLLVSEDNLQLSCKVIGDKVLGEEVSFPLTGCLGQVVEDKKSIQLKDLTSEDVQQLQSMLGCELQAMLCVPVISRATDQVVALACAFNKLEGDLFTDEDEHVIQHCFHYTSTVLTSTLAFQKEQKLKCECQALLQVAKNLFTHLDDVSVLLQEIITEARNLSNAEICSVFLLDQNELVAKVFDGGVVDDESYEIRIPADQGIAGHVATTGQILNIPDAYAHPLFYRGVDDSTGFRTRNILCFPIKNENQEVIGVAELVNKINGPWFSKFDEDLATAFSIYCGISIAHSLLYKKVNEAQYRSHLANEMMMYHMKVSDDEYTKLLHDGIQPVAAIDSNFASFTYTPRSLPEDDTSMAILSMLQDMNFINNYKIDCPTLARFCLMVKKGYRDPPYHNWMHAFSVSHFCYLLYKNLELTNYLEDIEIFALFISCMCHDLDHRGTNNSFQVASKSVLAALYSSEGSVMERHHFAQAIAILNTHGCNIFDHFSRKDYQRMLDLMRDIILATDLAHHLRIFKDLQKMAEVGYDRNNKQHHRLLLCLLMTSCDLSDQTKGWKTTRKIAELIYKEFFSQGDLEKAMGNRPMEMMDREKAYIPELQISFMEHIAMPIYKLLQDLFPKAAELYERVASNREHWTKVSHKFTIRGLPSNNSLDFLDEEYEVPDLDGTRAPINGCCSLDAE

In ChEMBL document CHEMBL1938364, “Discovery of orally active pyrazoloquinolines as potent PDE10 inhibitors for the management of schizophrenia” (Bioorg Med Chem Lett, 2012):

Tests used:
[1] = molecular target: Dual specificity calcium/calmodulin-dependent 3',5'-cyclic nucleotide phosphodiesterase 1A (Homo sapiens, UniProt P54750); assay: Displacement of [3H]cAMP from PDE1A3 by competitive binding assay
[2] = molecular target: High affinity 3',5'-cyclic-AMP phosphodiesterase 7A (Homo sapiens, UniProt Q13946); assay: Displacement of [3H]cAMP from PDE7A1 by competitive binding assay
[3] = molecular target: High affinity cGMP-specific 3',5'-cyclic phosphodiesterase 9A (Homo sapiens, UniProt O76083); assay: Displacement of [3H]cAMP from PDE9A1 by competitive binding assay
[4] = molecular target: 3',5'-cyclic-AMP phosphodiesterase 4B (Homo sapiens, UniProt Q07343); assay: Displacement of [3H]cAMP from PDE4B2 by competitive binding assay
[5] = molecular target: cGMP-dependent 3',5'-cyclic phosphodiesterase (Homo sapiens, UniProt O00408); assay: Displacement of [3H]cAMP from PDE2A by competitive binding assay

Ki [1] [µM]	Ki [2] [µM]	Ki [3] [µM]	Ki [4] [µM]	Ki [5] [µM]	Compound
> 10	> 10				COc1cc(C)c2nc3[nH]nc(C)c3c(CN3CC[C@@H](O)C3)c2c1
> 10	> 10	> 10	> 10		COc1cc(C)c2nc3[nH]nc(C)c3c(CN3CCOC(C)C3)c2c1 (stereo not drawn)

Continued, molecule first:

Compound	Ki [1] [µM]	Ki [2] [µM]	Ki [3] [µM]	Ki [4] [µM]	Ki [5] [µM]
COc1cc(C)c2nc3[nH]nc(C)c3c(CN3CCOCC3)c2c1	> 10	> 10			
COc1cc(C)c2nc3[nH]nc(C)c3c(CN3CCCOCC3)c2c1	> 10	> 10	> 10	> 10	
Cc1cc(O)cc2c(CN3CCCOCC3)c3c(C)n[nH]c3nc12					> 10
